Laboratory results reported in PMC3175392, “Noninvasive In Vivo Quantification of Neutrophil Elastase Activity in Acute Experimental Mouse Lung Injury” (International Journal of Molecular Imaging, 2011).

Biological target: T1, human NE (Homo sapiens, UniProt P08246)
T1 construct: purchased Innovative Research (Novi, MI)
T1 sequence (P08246 30-267): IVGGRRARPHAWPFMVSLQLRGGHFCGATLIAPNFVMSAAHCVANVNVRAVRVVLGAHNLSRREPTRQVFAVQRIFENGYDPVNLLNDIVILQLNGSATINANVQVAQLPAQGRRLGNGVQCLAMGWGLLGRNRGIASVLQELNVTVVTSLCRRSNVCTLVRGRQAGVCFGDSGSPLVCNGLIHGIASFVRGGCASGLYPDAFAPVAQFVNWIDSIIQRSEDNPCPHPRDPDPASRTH
Assay: Inhibition of NE680 cleavage by human NE
Type: biochemical

IC50 (NE680 0.5 μM as substrate, 30 min preincubation of enzyme with inhibitor, room temperature, read-out: IC50 on NE680 activation by human NE): 30 nM
IC50 of NE lower than that of human PR3 (ratio of IC50 human PR3 to NE): 23 times
Compound: CC(C)(C)C(=O)Oc1ccc(S(=O)(=O)Nc2ccccc2C(=O)NCC(=O)O)cc1 [sivelestat, N-{2-[({4-[(2,2-dimethylpropanoyl)oxy]phenyl}sulfonyl)amino]benzoyl} glycine sodium salt, reference compound]

Counter-ions that a name gives are not always drawn.
